Assay results reported in patent US5679701A (priority 1996, dated 1997).

Sequences of proteins named here, by UniProt entry; tags and fusion partners are left off. A change or cut given only in a name is not applied to a line headed by its entry.
UniProt P11716: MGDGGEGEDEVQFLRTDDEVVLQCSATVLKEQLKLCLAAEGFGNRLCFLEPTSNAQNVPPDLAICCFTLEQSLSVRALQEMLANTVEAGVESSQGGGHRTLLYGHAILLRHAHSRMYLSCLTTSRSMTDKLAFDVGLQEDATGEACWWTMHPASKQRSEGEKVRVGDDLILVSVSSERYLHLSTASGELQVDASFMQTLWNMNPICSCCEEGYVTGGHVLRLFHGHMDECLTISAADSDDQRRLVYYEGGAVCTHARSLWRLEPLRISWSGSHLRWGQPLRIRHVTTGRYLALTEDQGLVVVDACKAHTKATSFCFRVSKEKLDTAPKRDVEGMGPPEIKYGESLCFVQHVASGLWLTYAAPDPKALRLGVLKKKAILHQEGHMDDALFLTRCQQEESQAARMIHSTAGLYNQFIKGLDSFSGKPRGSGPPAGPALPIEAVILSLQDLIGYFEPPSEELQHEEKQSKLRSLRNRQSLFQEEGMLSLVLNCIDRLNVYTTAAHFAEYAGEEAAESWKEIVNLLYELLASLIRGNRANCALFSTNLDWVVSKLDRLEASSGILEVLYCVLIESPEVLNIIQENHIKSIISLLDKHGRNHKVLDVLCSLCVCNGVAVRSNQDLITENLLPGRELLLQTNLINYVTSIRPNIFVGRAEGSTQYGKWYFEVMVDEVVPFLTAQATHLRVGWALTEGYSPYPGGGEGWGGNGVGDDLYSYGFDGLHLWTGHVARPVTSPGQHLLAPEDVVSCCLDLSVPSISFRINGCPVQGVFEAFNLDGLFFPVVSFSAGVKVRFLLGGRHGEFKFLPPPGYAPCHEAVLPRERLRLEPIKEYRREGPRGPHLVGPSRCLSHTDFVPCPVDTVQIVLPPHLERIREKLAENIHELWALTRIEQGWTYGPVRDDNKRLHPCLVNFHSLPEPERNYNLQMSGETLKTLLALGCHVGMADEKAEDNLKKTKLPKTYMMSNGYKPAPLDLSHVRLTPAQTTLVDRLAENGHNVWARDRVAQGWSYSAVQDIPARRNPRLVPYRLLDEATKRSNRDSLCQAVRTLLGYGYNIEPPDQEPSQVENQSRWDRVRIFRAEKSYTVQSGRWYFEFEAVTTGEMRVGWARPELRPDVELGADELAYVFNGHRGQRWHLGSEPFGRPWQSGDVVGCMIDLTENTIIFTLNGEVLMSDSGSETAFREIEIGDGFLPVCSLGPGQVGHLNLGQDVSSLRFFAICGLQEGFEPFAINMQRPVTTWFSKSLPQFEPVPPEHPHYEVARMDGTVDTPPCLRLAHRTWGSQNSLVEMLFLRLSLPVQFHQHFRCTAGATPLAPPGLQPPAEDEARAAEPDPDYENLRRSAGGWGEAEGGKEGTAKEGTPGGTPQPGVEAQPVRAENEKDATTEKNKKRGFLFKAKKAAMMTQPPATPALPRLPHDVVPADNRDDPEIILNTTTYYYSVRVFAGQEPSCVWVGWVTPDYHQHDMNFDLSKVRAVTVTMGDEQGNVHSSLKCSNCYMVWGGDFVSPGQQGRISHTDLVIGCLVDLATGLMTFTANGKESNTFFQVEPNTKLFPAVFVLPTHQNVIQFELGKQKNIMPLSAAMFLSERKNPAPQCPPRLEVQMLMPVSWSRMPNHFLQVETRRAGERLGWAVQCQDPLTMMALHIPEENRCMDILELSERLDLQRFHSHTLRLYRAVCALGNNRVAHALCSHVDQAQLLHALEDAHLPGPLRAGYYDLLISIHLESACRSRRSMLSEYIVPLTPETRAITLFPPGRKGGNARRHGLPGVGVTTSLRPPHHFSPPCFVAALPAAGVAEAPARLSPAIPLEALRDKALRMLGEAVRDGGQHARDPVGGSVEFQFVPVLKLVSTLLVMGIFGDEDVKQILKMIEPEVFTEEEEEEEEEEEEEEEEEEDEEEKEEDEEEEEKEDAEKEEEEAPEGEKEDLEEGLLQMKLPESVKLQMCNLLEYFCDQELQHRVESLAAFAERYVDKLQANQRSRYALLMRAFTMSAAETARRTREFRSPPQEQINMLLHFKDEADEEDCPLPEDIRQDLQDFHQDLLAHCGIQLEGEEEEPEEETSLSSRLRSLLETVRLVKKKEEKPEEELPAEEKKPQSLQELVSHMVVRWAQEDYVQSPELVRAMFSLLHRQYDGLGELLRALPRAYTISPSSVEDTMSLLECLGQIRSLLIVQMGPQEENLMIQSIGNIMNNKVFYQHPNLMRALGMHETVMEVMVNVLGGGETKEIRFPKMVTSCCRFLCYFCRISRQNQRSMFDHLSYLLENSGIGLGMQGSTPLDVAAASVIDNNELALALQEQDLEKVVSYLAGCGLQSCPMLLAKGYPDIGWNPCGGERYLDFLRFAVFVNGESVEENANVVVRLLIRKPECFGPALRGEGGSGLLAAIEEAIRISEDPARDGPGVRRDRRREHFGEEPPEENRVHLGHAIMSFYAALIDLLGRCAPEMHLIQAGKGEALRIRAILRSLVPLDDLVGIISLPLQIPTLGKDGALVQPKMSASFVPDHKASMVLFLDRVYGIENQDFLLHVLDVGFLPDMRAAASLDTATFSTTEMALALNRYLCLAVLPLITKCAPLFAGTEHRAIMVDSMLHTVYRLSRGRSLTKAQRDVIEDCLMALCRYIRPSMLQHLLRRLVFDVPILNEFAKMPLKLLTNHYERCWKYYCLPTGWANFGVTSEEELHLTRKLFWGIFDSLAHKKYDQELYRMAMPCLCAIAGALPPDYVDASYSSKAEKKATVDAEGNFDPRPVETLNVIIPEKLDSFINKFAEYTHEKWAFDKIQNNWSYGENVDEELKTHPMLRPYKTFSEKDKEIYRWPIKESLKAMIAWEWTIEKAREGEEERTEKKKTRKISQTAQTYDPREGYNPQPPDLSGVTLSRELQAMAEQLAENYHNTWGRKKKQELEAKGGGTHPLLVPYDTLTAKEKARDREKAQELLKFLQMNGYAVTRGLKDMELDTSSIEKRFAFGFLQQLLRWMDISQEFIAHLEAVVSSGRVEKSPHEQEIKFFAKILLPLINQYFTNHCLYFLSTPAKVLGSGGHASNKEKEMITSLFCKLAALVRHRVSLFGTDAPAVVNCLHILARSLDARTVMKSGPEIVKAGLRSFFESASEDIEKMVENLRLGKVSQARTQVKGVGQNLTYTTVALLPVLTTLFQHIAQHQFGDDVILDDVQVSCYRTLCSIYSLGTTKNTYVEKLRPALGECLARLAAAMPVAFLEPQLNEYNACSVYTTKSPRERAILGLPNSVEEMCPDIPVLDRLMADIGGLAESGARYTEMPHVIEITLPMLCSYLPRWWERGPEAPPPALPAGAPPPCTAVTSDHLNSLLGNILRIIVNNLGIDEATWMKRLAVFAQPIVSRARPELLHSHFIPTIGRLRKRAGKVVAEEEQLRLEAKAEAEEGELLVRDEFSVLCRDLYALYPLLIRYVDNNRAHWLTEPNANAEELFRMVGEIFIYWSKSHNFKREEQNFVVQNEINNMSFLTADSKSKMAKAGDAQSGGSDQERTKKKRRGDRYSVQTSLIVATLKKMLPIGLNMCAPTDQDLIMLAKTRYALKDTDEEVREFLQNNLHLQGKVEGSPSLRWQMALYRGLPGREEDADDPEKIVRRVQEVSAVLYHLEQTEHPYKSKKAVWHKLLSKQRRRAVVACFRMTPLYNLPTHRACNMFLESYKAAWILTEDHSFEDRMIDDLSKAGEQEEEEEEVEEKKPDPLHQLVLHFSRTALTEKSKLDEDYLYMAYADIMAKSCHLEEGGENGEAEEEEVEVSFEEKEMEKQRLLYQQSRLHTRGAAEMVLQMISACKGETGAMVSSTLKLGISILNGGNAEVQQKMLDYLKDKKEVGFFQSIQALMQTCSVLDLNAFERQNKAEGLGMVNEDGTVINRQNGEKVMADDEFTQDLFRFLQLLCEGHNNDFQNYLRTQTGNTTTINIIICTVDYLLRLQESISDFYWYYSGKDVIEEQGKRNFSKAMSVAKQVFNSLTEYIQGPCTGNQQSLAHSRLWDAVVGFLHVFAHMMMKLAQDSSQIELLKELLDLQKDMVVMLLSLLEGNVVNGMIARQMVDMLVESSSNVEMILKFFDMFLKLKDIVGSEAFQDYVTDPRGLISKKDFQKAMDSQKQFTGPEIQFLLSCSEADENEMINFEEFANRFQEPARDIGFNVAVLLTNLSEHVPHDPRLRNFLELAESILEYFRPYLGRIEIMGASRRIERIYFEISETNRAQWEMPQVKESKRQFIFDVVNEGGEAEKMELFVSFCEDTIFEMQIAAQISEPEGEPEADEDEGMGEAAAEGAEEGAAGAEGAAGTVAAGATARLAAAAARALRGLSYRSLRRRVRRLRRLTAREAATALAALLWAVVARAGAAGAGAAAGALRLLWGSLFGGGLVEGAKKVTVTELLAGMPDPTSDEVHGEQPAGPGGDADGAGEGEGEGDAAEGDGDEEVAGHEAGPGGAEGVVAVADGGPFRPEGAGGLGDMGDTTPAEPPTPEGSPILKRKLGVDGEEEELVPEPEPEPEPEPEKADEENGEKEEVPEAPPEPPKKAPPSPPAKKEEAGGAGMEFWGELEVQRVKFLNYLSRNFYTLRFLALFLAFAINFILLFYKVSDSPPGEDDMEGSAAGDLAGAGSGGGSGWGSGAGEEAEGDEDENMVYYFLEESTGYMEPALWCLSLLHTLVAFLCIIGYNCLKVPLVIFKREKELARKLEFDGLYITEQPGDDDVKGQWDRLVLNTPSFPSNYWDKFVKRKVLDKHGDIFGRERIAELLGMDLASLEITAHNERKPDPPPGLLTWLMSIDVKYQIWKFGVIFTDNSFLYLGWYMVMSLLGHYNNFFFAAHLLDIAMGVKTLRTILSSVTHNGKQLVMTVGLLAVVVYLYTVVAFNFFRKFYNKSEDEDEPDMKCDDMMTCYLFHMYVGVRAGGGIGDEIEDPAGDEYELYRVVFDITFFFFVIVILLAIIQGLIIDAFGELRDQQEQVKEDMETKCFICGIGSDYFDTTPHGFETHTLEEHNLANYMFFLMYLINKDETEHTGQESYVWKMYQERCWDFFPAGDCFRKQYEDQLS

Biological target: T1, ryanodine receptor (skeletal sarcoplasmic reticulum membrane vesicles) (Oryctolagus cuniculus, UniProt P11716)
T1 construct: skeletal sarcoplasmic reticulum membrane vesicles; from tissue; host or cells: skeletal muscle sarcoplasmic reticulum membrane vesicles
Assay: biochemical
Format: binding

CC1CCC2(O)C3(C)CC4(O)OC2(C1O)C1(O)C3(O)C(OC(=O)c2ccc[nH]2)C(O)(C(C)C)C41C (centres unmarked) [Ryanodine, ryanodine]
IC50: 11.9 ± 1.6 nM | Kd: 4.4 ± 0.8 nM
